Assay results reported in patent US10799555B2, “PD-1 peptide inhibitors” (Leidos, Inc., priority 2016, dated 2020).

Test system: human PBMCs
Assay: Tetanus toxoid recall assay using individual peptides
Type: cell-based
Conditions: qualitative summary of FIG. 13

Structure (SMILES) | IL-17a production
CSCC[C@H](NC(=O)CNC(=O)[C@@H](NC(=O)[C@H](Cc1c[nH]c2ccccc12)NC(=O)[C@H](Cc1c[nH]cn1)NC(=O)[C@H](CO)NC(=O)[C@H](CCCNC(=N)N)NC(=O)[C@@H](NC(=O)[C@H](CCC(N)=O)NC(=O)[C@H](Cc1ccc(O)cc1)NC(=O)[C@@H](NC(=O)[C@H](CCC(N)=O)NC(=O)[C@H](Cc1c[nH]cn1)NC(=O)[C@H](Cc1c[nH]cn1)NC(=O)[C@@H](N)Cc1c[nH]cn1)C(C)C)C(C)C)[C@@H](C)O)C(=O)N[C@@H](Cc1c[nH]cn1)C(=O)N[C@@H](CO)C(=O)NCC(=O)N[C@@H](Cc1c[nH]cn1)C(=O)N[C@@H](CC(=O)O)C(=O)O [HD20] | ++
CC[C@H](C)[C@H](NC(=O)[C@H](CCCCN)NC(=O)[C@@H]1CCCN1C(=O)[C@H](CCSC)NC(=O)[C@@H]1CCCN1C(=O)[C@@H](NC(=O)[C@@H](NC(=O)[C@H](CCCNC(=N)N)NC(=O)[C@@H](NC(=O)[C@@H](N)CCC(N)=O)[C@@H](C)O)[C@@H](C)O)C(C)C)C(=O)N[C@@H](Cc1c[nH]cn1)C(=O)N[C@@H](Cc1c[nH]cn1)C(=O)N1CCC[C@H]1C(=O)N1CCC[C@H]1C(=O)N[C@@H](Cc1c[nH]c2ccccc12)C(=O)N[C@@H](CCC(N)=O)C(=O)N[C@@H](CC(N)=O)C(=O)N[C@H](C(=O)N[C@H](C(=O)N1CCC[C@H]1C(=O)O)C(C)C)C(C)C [QP20] | x
CSCC[C@H](NC(=O)[C@H](CCCCN)NC(=O)[C@H](Cc1ccccc1)NC(=O)[C@H](Cc1c[nH]cn1)NC(=O)[C@H](Cc1c[nH]cn1)NC(=O)[C@H](Cc1ccc(O)cc1)NC(=O)[C@H](CO)NC(=O)[C@@H](N)CO)C(=O)N1CCC[C@H]1C(=O)N[C@@H](CCC(=O)O)C(=O)N[C@@H](CC(C)C)C(=O)N[C@@H](Cc1c[nH]cn1)C(=O)N[C@@H](Cc1ccccc1)C(=O)NCC(=O)N[C@@H](CCCCN)C(=O)N[C@@H](CC(N)=O)C(=O)N[C@H](C(=O)N[C@@H](Cc1ccccc1)C(=O)N[C@@H](Cc1c[nH]cn1)C(=O)N[C@@H](CCC(N)=O)C(=O)O)[C@@H](C)O [SQ20] | ++
CC[C@H](C)[C@H](NC(=O)[C@H](Cc1c[nH]c2ccccc12)NC(=O)[C@H](CCC(=O)O)NC(=O)[C@H](Cc1c[nH]cn1)NC(=O)[C@H](CCC(=O)O)NC(=O)[C@H](Cc1c[nH]cn1)NC(=O)[C@@H]1CCCN1C(=O)[C@H](CCCNC(=N)N)NC(=O)[C@@H](NC(=O)[C@H](Cc1c[nH]cn1)NC(=O)[C@H](Cc1c[nH]cn1)NC(=O)[C@H](CC(N)=O)NC(=O)[C@H](Cc1c[nH]cn1)NC(=O)[C@H](Cc1ccccc1)NC(=O)[C@H](CO)NC(=O)[C@H](C)NC(=O)[C@@H]1CCCN1C(=O)[C@H](CC(C)C)NC(=O)[C@H](CC(N)=O)NC(=O)[C@@H](N)Cc1c[nH]c2ccccc12)[C@@H](C)CC)C(=O)N[C@@H](CCC(N)=O)C(=O)O [WQ20] | ++
